Activation data for 101 molecules are collected here from PubChem BioAssay AID463104 (Sanford-Burnham Center for Chemical Genomics, 2010).

The entries are a selection whose mix differs from that of the whole data set. Active and inactive are the calls of the source.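 How the source made its calls: active means versus positive control, 20 µM dose yields 30% or more activation; inactive means the rest.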

The nature of this experiment: activators of adaptive XBP1 UPR arm, primary screen, cell-based, CHO-XBP1 luciferase reporter, luminescence, uHTS (AID 463104).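 Further: 100% = tunicamycin at 10 µg/mL and 0% = DMSO only wells.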 The note with it: IRE1-XBP1 UPR activation, at 20 µM, stronger effect = higher value, percent of tunicamycin response, DMSO as zero. Summed up: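 incubation = overnight seeding at 37 °C, 6 h compound treatment at 37 °C | assay system = CHO-XBP1 cells stably carrying IRE1-XBP1-driven luciferase reporter | input = 1000 cells per well | detection = luciferase luminescence | dosing = single point, 20 µM final compound, 1% DMSO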
Background: A reporter such as luciferase makes a cellular process visible.
In the case of `CCOC(=O)Nc1ccc([As](=O)(O)O)c(O)c1`, the activation was inactive: -0.46%.

As to `CCCCOc1ccc(C(=O)NCC2(N3CCCCC3)CCCCC2)cc1OC`, the activation is inactive: -2.56%.

Turning to `Cc1cc(SC(NC(=O)c2ccccc2)C(Cl)(Cl)Cl)nc(C(C)C)n1` (stereo unspecified), the activation is inactive: -1.45%.

For `CCOC(=O)Nc1cccc([As](=O)(O)O)c1`, the activation was inactive: 0.1%.

For `O=P(Nc1ccccn1)(c1cccc2ccccc12)c1cccc2ccccc12`, the activation was inactive: -3.82%.

`Cc1cc(SC(NC=O)C(Cl)(Cl)Cl)ncn1` (stereo unspecified): the activation was inactive: 1%.

Turning to `COP1(=S)c2c(C)nn(CCC#N)c2N=C(c2ccc(F)cc2)N1C` (stereo unspecified), the activation was inactive: -3.04%.

`O=C(COc1ccccc1)OC1CN2CCC1CC2` (stereo unspecified): the activation was inactive: 0.81%.

With `O=C(Nc1ccncc1[N+](=O)[O-])c1ccc([N+](=O)[O-])cc1[N+](=O)[O-]`, the activation is inactive: -4.79%.

As for `O=C(OC1CN2CCC1CC2)c1cccc([N+](=O)[O-])c1` (stereo unspecified), the activation was inactive: -0.21%.

With `CCOC(=O)c1ccc(NC(=O)C(C)(CCl)SC)cc1` (stereo unspecified), the activation was inactive: 2.45%.

Turning to `CCC(C)N(CC(C)C)C(=S)SC(NC(C)=O)C(Cl)(Cl)Cl` (stereo unspecified), the activation is inactive: -0.36%.

Regarding `Cc1c2c(nc3ccccc13)SC(C(Cl)Cl)C2` (stereo unspecified), the activation was inactive: 3.09%.

In the case of `O=C(OC1CN2CCC1CC2)C12CC3CC(CC(C3)C1)C2` (stereo unspecified), the activation is inactive: -2.07%.

Consider `Cc1cc(=O)[nH]c(N[N+](=O)[O-])n1`, for which the activation was inactive: 1.77%.

On to `COc1ccc2nc(NP(=O)(c3ccccc3)c3ccccc3)sc2c1`, for which the activation is inactive: -3.23%.

As for `COc1cc(I)ccc1[As](=O)(O)O`, the activation was inactive: 1.15%.

In the case of `COc1ccc(N/C(=N/P(=O)(N2CCOCC2)N2CCOCC2)N2CCOCC2)cc1`, the activation was inactive: -2.94%.

`C[As](=O)(O)c1cccc(C(=O)O)c1`: the activation is inactive: -2.69%.

For `O=[As](O)(c1ccc(O)cc1)c1ccccc1O`, the activation was inactive: 0.19%.

`COc1cc(C(=O)NCC2(N3CCOCC3)CCCCC2)ccc1OCC(C)C`: the activation was inactive: 1.45%.

With `Cc1ccc(OP(=O)(Nc2ccc([N+](=O)[O-])cn2)Oc2ccc(C)cc2)cc1`, the activation was inactive: -2.21%.

As to `Cc1ccc2nc3c(c(C)c2c1)CC(C(Cl)Cl)S3` (stereo unspecified), the activation is inactive: 7.87%.

Regarding `ClCCSc1nnc(-c2cccnc2)o1`, the activation is inactive: -1.52%.

With `CC(C)c1ccc(OP(=O)(Nc2ccccn2)Oc2ccccc2F)cc1` (stereo unspecified), the activation was inactive: 5.75%.

For the molecule `CCN(CC)C(=S)SC(NC=O)C(Cl)(Cl)Cl` (stereo unspecified), the activation is inactive: -1.17%.

For the molecule `O=C(OC1CN2CCC1CC2)c1cccc2[nH]cnc12` (stereo unspecified), the activation is inactive: -4.74%.

In the case of `CC(C)NC(=O)NP(=O)(Oc1ccccc1)Oc1ccccc1`, the activation was inactive: 4.01%.

In the case of `O=[N+]([O-])c1cc([N+](=O)[O-])c(-c2ccn[nH]2)s1`, the activation is inactive: -1.02%.

Turning to `CCOP1(=S)c2c(C)nn(CCC#N)c2N=C(c2ccccc2F)N1C` (stereo unspecified), the activation is inactive: -3.04%.

Consider `O=P(Nc1nccs1)(c1ccccc1)c1nc2ccccc2s1` (stereo unspecified), for which the activation was inactive: 3.21%.

As to `O=P(Nc1nccs1)(Oc1ccccc1)Oc1ccccc1`, the activation is inactive: 3.1%.

For `CS(=O)(=O)c1cc([N+](=O)[O-])c2no[n+]([O-])c2c1`, the activation was inactive: -0.26%.

In the case of `Nc1ccccc1[As](=O)(O)c1ccccc1`, the activation was inactive: -1.86%.

Consider `O=C(O)COc1ccc([As](=O)(O)O)cc1[N+](=O)[O-]`, for which the activation is inactive: -2.23%.

As to `NC(=O)Nc1ccc([As](=O)(O)O)cc1`, the activation is inactive: 0.4%.

As to `N#CCCN(C(=O)COC(=O)C(O)(c1ccccc1)c1ccccc1)c1ccc(F)cc1`, the activation was inactive: 1.57%.

In the case of `CCOP1(=S)c2c(C)nn(CCC#N)c2N=C(c2ccc(F)cc2)N1C` (stereo unspecified), the activation is inactive: 0.17%.

With `CN(C(=O)Cc1ccccc1)[C@@H]1CC[C@]2(CCCO2)C[C@H]1N1CCCC1`, the activation was inactive: -3.05%.

Regarding `CN(C)C(=O)c1cc([N+](=O)[O-])cc2c1-c1c(cc([N+](=O)[O-])cc1[N+](=O)[O-])C2=O`, the activation is inactive: -11.2%.

Take `O=[N+]([O-])c1ccc2c(c1)nnn2O`: the activation was inactive: -2.37%.

For `CN(C(=O)Cc1ccc(Cl)c(Cl)c1)[C@H]1CC[C@@]2(CCCO2)C[C@@H]1N1CCCC1`, the activation was inactive: -7.78%.

Take `O=C(OC1CN2CCC1CC2)c1ccc(Cl)cc1` (stereo unspecified): the activation was inactive: 2.25%.

Turning to `COc1cc(C(=O)NCC2(N3CCOCC3)CCCCC2)cc(Cl)c1OC(C)C`, the activation is inactive: -2.19%.

As to `O=[As](O)(O)c1cccnc1`, the activation is inactive: 0.55%.

For `CS(=O)(=O)c1ccc(Cl)c(NC(=O)COC(=O)C(O)(c2ccccc2)c2ccccc2)c1`, the activation was inactive: -4.56%.

As for `O=[As](O)(c1cccc(O)c1)c1cccc(O)c1`, the activation was inactive: -0.77%.

Take `Cc1cccc(OCC(=O)OC2CN3CCC2CC3)c1` (stereo unspecified): the activation is inactive: -4.71%.

For the molecule `Cc1ccc(NCCc2c([N+](=O)[O-])cc([N+](=O)[O-])cc2[N+](=O)[O-])cc1`, the activation is inactive: -2.48%.

In the case of `CCCOP(=S)(Nc1nc(N)cc(=O)[nH]1)OCCC`, the activation was inactive: -2%.

In the case of `COc1cc(C2NCCC3(OCCO3)C2(C)C)cc(OC)c1OC` (stereo unspecified), the activation was inactive: -1.35%.

`CCOP(=O)(Nc1cccc2ccccc12)OCC`: the activation is inactive: 0.84%.

As for `O=P1(Nc2ccccn2)COc2ccccc2OC1`, the activation was inactive: -0.8%.

Consider `CCC1=CC2Cc3nc4ccc(Cl)cc4c(N)c3C(C1)C2` (stereo unspecified), for which the activation is inactive: -3.86%.

Regarding `CCOP(=O)(NC(=NC(C)c1ccccc1)NC(C)c1ccccc1)OCC` (stereo unspecified), the activation is inactive: -2.58%.

Turning to `CN(CCCl)Cc1cc(Cl)c(NC2=NCCN2)c(Cl)c1`, the activation was inactive: -7.3%.

For `CCOP(=O)(Nc1ccc(C)cn1)OCC`, the activation was inactive: -2.85%.

For the molecule `Clc1n[nH]nc1-c1nn[nH][15n]1`, the activation was inactive: 2.67%.

Turning to `CC(C)(C)C(=O)NC(Sc1ncccn1)C(Cl)(Cl)Cl` (stereo unspecified), the activation was inactive: 1.59%.

Turning to `COc1ccccc1CNC(=O)COC(=O)C(O)(c1ccccc1)c1ccccc1`, the activation is inactive: -1.35%.

For the molecule `CC(C)/C=N\N=C(\N)N[N+](=O)[O-]`, the activation is inactive: 1.28%.

Turning to `CN(C(=O)Cc1ccc(Cl)c(Cl)c1)[C@@H]1CCCC[C@H]1N1CCCC1`, the activation is inactive: -8.14%.

With `O=[As](O)(c1ccccc1Br)c1ccccc1Br`, the activation was inactive: -1.25%.

As for `CC1(CBr)Cn2c(nc3ccccc3c2=O)S1` (stereo unspecified), the activation is inactive: -0.84%.

`Cc1nn(-c2ccccc2)c2c1P(=O)(N1CCOCC1)N(C)C(c1ccccc1)=N2` (stereo unspecified): the activation is inactive: -0.34%.

Regarding `CC1CCC(C(C)C)C(OP(=O)(Nc2ccccn2)c2ccccc2)C1` (stereo unspecified), the activation was inactive: -0.49%.

As to `Cc1ccc(C(=O)OC2CN3CCC2CC3)cc1` (stereo unspecified), the activation was inactive: 0.12%.

`CN(C)C1(CNC(=O)c2ccc(S(C)(=O)=O)cc2)CCCCC1`: the activation is inactive: -2.46%.

With `O=C(/C=C/c1ccccc1)OC1CN2CCC1CC2` (stereo unspecified), the activation was inactive: -3.13%.

Regarding `O=P1(Nc2ncccn2)COc2ccccc2OC1`, the activation is inactive: -1.43%.

With `Nc1cccc([As](=O)(O)c2ccccc2)c1`, the activation is inactive: -1.86%.

In the case of `O=P1(Nc2ccc(Br)cn2)COc2ccccc2OC1`, the activation was inactive: -0.24%.

As for `NS(=O)(=O)c1cccc(NC(=O)COC(=O)C(O)(c2ccccc2)c2ccccc2)c1`, the activation was inactive: -1.02%.

Regarding `Cc1ccc(OCC(=O)OC2CN3CCC2CC3)cc1` (stereo unspecified), the activation is inactive: -2.77%.

In the case of `O=[As](O)(c1cccs1)c1cccs1`, the activation is inactive: 0.75%.

Consider `O=P(Nc1ccccn1)(c1ccc(Br)cc1)c1ccc(Br)cc1`, for which the activation was inactive: -3.48%.

Regarding `CN(C)C1(CNC(=O)c2ccc(Cl)c(S(N)(=O)=O)c2)CCCCC1`, the activation is inactive: 3.9%.

Regarding `O=P(Nc1nc2ccccc2s1)(c1ccccc1)c1ccccc1`, the activation is inactive: -1.18%.

As for `C[C@H]1OP(=O)(Oc2ccccc2)[C@H](O)[C@H](O)[C@H]1N=[N+]=[N-]` (stereo partly specified), the activation was inactive: 2.51%.

`O=[As](O)(c1ccccc1)c1ccc(O)cc1`: the activation is inactive: -1.18%.

For the molecule `O=[N+]([O-])c1ncn(CCn2cnc([N+](=O)[O-])n2)n1`, the activation is inactive: -2.73%.

In the case of `O=C(OC1CN2CCC1CC2)c1cccc(Cl)c1` (stereo unspecified), the activation is inactive: -0.74%.

Turning to `Nc1ccc([As](=O)(O)c2ccc([N+](=O)[O-])cc2)cc1`, the activation was inactive: -0.69%.

Take `C(Cc1nn[nH]n1)Cc1nn[nH]n1`: the activation is inactive: -1.58%.

Regarding `CC(C)C(=O)NC(Sc1ccccc1)C(Cl)(Cl)Cl` (stereo unspecified), the activation is inactive: -1.1%.

In the case of `O=P(Nc1nccs1)(c1ccccc1)c1ccccc1`, the activation is inactive: 0.21%.

In the case of `c1nnnn1CCn1cnnn1`, the activation is inactive: -0.24%.

`O=P1(Nc2nc3ccc(Cl)cc3s2)COc2ccccc2O1` (stereo unspecified): the activation was inactive: -0.58%.

For `CCOc1ccc(C2=NCC(CBr)S2)cc1` (stereo unspecified), the activation is inactive: -0.49%.

For `CC(C)(C)C(=O)NC(Sc1ccccc1)C(Cl)(Cl)Cl` (stereo unspecified), the activation is inactive: -3.01%.

Consider `Cc1ccccc1CN(C)C(=O)COC(=O)C(O)(c1ccccc1)c1ccccc1`, for which the activation is inactive: -0.86%.

Take `C[C@@H]1C=CCP(=O)(Oc2ccccc2)O1` (stereo partly specified): the activation was inactive: -1.26%.

As for `C[C@H]1OP(=O)(Oc2ccccc2)C[C@@H]2O[C@@H]21` (stereo partly specified), the activation is inactive: 2.06%.

For `CC(=O)c1ccc(N2CC2c2ccncc2)cc1` (stereo unspecified), the activation is inactive: -2.33%.

Turning to `CC(=O)Nc1ccc([As](=O)(O)O)c(O)c1`, the activation was inactive: 1.52%.

On to `CC(=O)Nc1ccc(Oc2c([N+](=O)[O-])cc([N+](=O)[O-])cc2[N+](=O)[O-])cc1`, for which the activation is inactive: -3.2%.

Turning to `c1ccc(-c2nn[nH]n2)c(-c2nn[nH]n2)c1`, the activation is inactive: -3.34%.

For `Cc1ccc(NP(=O)(Oc2cccc(C)c2)Oc2cccc(C)c2)nc1`, the activation was inactive: -2.03%.

For `CCOC(=O)NC(Sc1ccccc1)C(Cl)(Cl)Cl` (stereo unspecified), the activation is inactive: 10.4%.

As to `CCNC(=S)/N=C(\N)N[N+](=O)[O-]`, the activation is inactive: -3.71%.

Take `O=C(NC1CCS(=O)(=O)C1)NP(=S)(Oc1ccccc1)Oc1ccccc1` (stereo unspecified): the activation is inactive: 1.12%.
